Protein sequences, listed by entry. Tags and fused reporters are not part of them. Residues count along the entry.
UniProt Q13224, 27-1484 limits assumed: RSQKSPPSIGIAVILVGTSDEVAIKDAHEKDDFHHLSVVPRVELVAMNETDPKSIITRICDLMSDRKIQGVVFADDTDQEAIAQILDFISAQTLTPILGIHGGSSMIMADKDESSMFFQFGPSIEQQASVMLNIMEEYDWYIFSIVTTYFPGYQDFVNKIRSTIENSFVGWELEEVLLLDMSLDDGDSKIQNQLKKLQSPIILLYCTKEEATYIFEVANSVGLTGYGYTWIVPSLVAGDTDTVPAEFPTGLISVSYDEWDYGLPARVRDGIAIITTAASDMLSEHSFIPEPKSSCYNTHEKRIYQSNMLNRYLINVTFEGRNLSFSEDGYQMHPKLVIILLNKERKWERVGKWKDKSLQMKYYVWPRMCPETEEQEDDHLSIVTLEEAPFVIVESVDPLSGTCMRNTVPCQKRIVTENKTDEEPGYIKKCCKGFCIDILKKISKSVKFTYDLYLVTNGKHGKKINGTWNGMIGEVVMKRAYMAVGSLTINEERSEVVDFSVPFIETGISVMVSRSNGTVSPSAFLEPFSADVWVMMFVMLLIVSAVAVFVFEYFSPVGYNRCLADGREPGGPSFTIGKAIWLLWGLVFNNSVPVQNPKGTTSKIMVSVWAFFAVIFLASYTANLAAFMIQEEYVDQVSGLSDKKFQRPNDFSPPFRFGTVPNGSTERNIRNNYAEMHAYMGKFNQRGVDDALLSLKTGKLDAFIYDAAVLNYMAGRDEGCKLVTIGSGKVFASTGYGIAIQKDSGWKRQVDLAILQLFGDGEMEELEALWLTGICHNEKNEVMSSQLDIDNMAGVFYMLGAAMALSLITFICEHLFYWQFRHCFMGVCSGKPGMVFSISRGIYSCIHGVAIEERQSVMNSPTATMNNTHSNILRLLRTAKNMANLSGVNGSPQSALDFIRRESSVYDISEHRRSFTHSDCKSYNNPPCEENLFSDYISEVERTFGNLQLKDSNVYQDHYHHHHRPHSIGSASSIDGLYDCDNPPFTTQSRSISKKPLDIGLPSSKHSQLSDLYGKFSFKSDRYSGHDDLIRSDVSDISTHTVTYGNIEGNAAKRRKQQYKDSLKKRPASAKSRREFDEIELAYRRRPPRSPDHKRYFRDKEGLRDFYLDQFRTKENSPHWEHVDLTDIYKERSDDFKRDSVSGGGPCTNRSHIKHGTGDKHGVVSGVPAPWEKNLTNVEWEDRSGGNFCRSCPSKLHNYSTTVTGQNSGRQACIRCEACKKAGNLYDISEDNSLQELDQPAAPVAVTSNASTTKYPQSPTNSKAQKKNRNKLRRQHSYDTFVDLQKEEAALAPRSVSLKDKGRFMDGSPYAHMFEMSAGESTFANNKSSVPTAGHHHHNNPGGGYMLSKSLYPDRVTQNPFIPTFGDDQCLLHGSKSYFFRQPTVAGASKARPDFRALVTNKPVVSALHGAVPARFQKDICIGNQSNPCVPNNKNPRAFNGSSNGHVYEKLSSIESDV

In patent US8841301B2, “Selective NR2B antagonists” (Bristol-Myers Squibb Company, priority 2011, dated 2014):

molecular target: hNR2B (Homo sapiens, UniProt Q13224); assay: Electrophysiology NMDA receptor experiments: two electrode voltage-clamp in Xenopus laevis oocytes expressing GluN1/GluN2 subunits; details: read-out: Rating (hNR2B IC50); oocytes voltage clamped at −40 mV; 50 μM glutamate, 30 μM glycine
Experimental: Electrophysiology NMDA Receptor Experiments.
Stage V and VI oocytes were surgically removed from the ovaries of large, well-fed and healthy Xenopus laevis anesthetized with 3-amino-benzoic acid ethyl ester (3 gm/l). Clusters of isolated oocytes were incubated with 292 U/ml Worthington (Freehold, N.J.) type IV collagenase or 1.3 mg/ml collagenase (Life Technologies, Gaithersburg, Md.; 17018-029) for 2 hr in Ca^2+-free solution comprised of (in mM) 115 NaCl, 2.5 KCl, and 10 HEPES, pH 7.5, with slow agitation to remove the follicular cell layer. Oocytes were then washed in the same solution supplemented with 1.8 mM CaCl2 and maintained in Barth's solution comprised of (in mM): 88 NaCl, 1 KCl, 2.4 NaHCO3, 10 HEPES, 0.82 MgSO4, 0.33 Ca(NO3)2, and 0.91 CaCl2 and supplemented with 100 μg/ml gentamycin, 10 μg/ml streptomycin, and 10 μg/ml penicillin. Oocytes were manually defolliculated and injected within 24 hrs of isolation with 3-5 ng of human GluN1 subunit cRNA and 7-10 ng of human GluN2 cRNA subunit in a 50 nl volume, and incubated in Barth's solution at 18° C. for 2-7 d. Glass injection pipettes had tip sizes ranging from 10-20 microns, and were backfilled with mineral oil. cRNA was synthesized from linearized template cDNA for rat glutamate receptor subunits according to manufacturer specifications (Ambion).
Two electrode voltage-clamp recordings were made 2-7 days post-injection. Oocytes were placed in a dual-track plexiglass recording chamber with a single perfusion line that splits in a Y-configuration to perfuse two oocytes. Dual recordings were made at room temperature (23° C.) using two Warner OC725B two-electrode voltage clamp amplifiers, arranged as recommended by the manufacturer. Glass microelectrodes (1-10 Megaohms) were filled with 300 mM KCl (voltage electrode) or 3 M KCl (current electrode). The bath clamps communicated across silver chloride wires placed into each side of the recording chamber, both of which were assumed to be at a reference potential of 0 mV. Oocytes were perfused with a solution comprised of (in mM) 90 NaCl, 1 KCl, 10 HEPES, […] and 0.5 BaCl2; pH 7.4, adjusted by addition of NaOH. Oocytes were recorded under voltage clamp at −40 mV. Final concentrations for glutamate and glycine were 50 μM and 30 μM, respectively. Concentration-response curves for experimental compounds were obtained by applying in successive fashion maximal glutamate/glycine, followed by glutamate/glycine plus variable concentrations of experimental compounds. Dose response curves consisting of four to eight concentrations were obtained in this manner. The baseline leak current at −40 mV was measured before and after recording, and the full recording linearly corrected for any change in leak current. The level of inhibition by applied experimental compounds was expressed as a percent of the initial glutamate response, and averaged together across oocytes from multiple experiments. Results were pooled, and the average percent responses at antagonist concentrations were fit by the equation, Percent Response=(100−minimum)/(1+([conc]/IC50)^nH)+minimum where minimum is the residual percent response in saturating concentration of the experimental compounds, IC50 is the concentration of antagonist that causes half of the achievable inhibition, and nH is a slope factor describing steepness of the inhibition curve. […]
For NMDA receptor subtype selectivity experiments human GluN1/GluN2A, GluN1/GluN2C, and GluN1/GluN2D cRNAs were expressed in Xenopus laevis as described above. Here, 10 μM concentrations of the antagonist was perfused with 50 μM glutamate and 30 μM glycine onto the oocyte for two min and the remaining current in the presence of the antagonist was compared to the maximal current obtained with 50 μM glutamate and 30 μM glycine alone (defined as 100%). When IC50 determinations were made against other NMDA receptor subtypes the protocol as described above was followed. […]

IC50 [nM] | Structure (SMILES)
> 10000 | FC(F)Oc1ccc(Nc2ncc(CCc3ccc4[nH]nc(Cl)c4c3)cn2)cc1
1000 to 10000 | CC(Cc1ccc2[nH]ncc2c1)c1cnc(Nc2ccc(OC(F)F)cc2)nc1 (stereo not shown)
1000 to 10000 | Cc1ccc(Nc2ncc(CCc3ccc4[nH]ncc4c3)cn2)cc1F
< 200 | O=c1[nH]c2ccc(CCc3cnc(Nc4ccc(OC(F)F)cc4)nc3)cc2o1
1000 to 10000 | FC(F)Oc1ccc(Nc2ncc(C3CC3c3ccc4[nH]ncc4c3)cn2)cc1 (stereo not shown)
201 to 1000 | CC(Cc1ccc2[nH]c(=O)ccc2c1)c1cnc(Nc2ccc(OC(F)F)cc2)nc1 (stereo not shown)
< 200 | Cc1ccc(Nc2ncc(CCc3ccc4[nH]c(=O)ccc4c3)cn2)cc1F
